Laboratory results taken from PubChem BioAssay AID1469 (National Center for Advancing Translational Sciences (NCATS), 2008).
The entries are a selection whose mix differs from that of the whole data set. Activity calls are given as the source filed them. The call rests on the fitted dose curve; in most records, active means well fitted inhibition curve with a large enough effect; inconclusive means small, poorly fitted or top-dose-only effect, or effect the other way; inactive means flat fitted curve, though single readings scatter.
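Further: plate controls were bound peptide for no effect and peptide without receptor for full effect; nearly all actives have a fitted effect of over 50% in size.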

The chains behind the UniProt entries cited, without tags or fusion partners.
UniProt P10828, whole entry: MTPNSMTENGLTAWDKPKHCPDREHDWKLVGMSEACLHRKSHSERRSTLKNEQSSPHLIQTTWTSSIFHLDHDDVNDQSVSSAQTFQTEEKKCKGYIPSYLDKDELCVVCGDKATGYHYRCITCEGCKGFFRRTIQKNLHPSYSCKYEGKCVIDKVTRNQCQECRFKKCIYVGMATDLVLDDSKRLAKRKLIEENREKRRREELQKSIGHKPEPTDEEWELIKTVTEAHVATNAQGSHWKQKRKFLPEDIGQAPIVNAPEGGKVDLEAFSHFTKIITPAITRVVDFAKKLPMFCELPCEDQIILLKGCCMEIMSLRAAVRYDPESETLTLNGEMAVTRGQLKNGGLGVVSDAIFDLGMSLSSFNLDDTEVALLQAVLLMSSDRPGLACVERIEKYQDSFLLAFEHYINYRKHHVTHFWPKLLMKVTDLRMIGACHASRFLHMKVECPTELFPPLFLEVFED

The molecules below were run against Thyroid hormone receptor beta (Homo sapiens) (UniProt P10828) (assay: qHTS for Inhibitors of the Interaction of Thyroid Hormone Receptor and Steroid Receptor Coregulator 2). Conditions: TRbeta-SRC2 peptide binding, fluorescence polarization, receptor liganded with 1 µM T3; at 106 µM (top of the series).
Text: NIH Molecular Libraries Probe Production Network [MLPCN]
NIH Chemical Genomics Center [NCGC]
Assay Provider: R. Kip Guy, St. Jude Children's Research Hospital
Thyroid receptor (TR) regulates many homeostatic processes including basal metabolism, cardiovascular function, body weight, and lipid trafficking. TR modulators are potential therapeutics for obesity and hyperlipidemias but current thyroid analogs have undesirable side effects, particularly cardiac stimulation. To identify inhibitors that specifically prevent the interaction of TR with the steroid receptor coregulator 2 (SRC2), a fluorescence polarization assay was screened. This assay detects interaction of the ligand-binding domain of human TRb with a Texas Red labeled SRC2 peptide, corresponding to a 20 amino acid region of the nuclear receptor interaction domain (Arnold et al., 2006). Small molecule inhibitors that block the interaction of TR and SRC2 are detected by a decrease in fluorescence polarization.
Arnold, L. A.; Estebanez-Perpina, E.; Togashi, M.; Shelat, A.; Ocasio, C. A.; McReynolds, A. C.; Nguyen, P.; Baxter, J. D.; Fletterick, R. J.; Webb, P.; Guy, R. K. A high-throughput screening method to identify small molecule inhibitors of thyroid hormone receptor coactivator binding. […]
Keywords: NIH Roadmap, MLPCN, MLI, MLSMR, qHTS, NCGC, qHTS, thyroid hormone receptor, steroid receptor coactivator, fluorescence polarization
In the case of `CP(=O)(Nc1ccc(Cl)cc1Cl)Oc1ccccc1` (stereo unspecified), the activity change, negative = inhibition is reported as inactive: -3.1%.
